E-sel inducer: induces E-selectin expression in human endothelial cells. P16581. HUVEC E-selectin immunofluorescence imaging; normalized: neutral wells 0, TNF-alpha wells 100. activation, % at 7.58 µM. 0.37% of 260,000 active;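 active = mean E-selectin-positive cell signal at least 10% of the positive control, reached in at least 60% of replicates, without over 20% cell loss; inconclusive = no rule given, readout overlaps actives, possibly toxicity-flagged; inactive = the rest, including those meeting only one limit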
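Read-out: % PE-positive cells | Test system: HUVEC | Doses: One compound dose added by pin transfer | Buffer or medium: EGM-2 over gelatin coat | Signal: Immunofluorescence imaging | Benchmarks: TNF-alpha, DMSO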
C2C12 statin: protects C2C12 myotubes from simvastatin toxicity. ATP luminescence, 48 h; scaled: DMSO 0, geranylgeraniol control 100. rescue of ATP level, % at 7.49 µM. 0.78% of 330,000 active;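 active = mean ATP rescue above about 67%, or every replicate alone reaching that limit, limit read from the data, passing the limit was not always enough; inconclusive = no clear call, values can overlap the other calls; inactive = mean under the limit and some replicate under it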;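 also: myotubes were challenged with 10 µM simvastatin during compound exposure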
PglD inh: PglD (C. jejuni) enzyme inhibition. purified PglD enzyme, DTNB colorimetric CoA detection. inhibition, % at 12.5 µM. 0.098% of 360,000 active; in the data active = inhibition above about 16%, passing the limit was not always enough; inconclusive = no clear call, values can overlap the other calls
esBAF inh: SWI/SNF esBAF complex inhibition | reporter increase, % at 12.5 µM | AID 602393 | mouse ES cells, Bmi1-luciferase knock-in reporter, 24 h; 100% = twice the neutral-well signal | 2% of 350,000 active; in the data active = activation above about 40%; inconclusive = no clear call, values can overlap the other calls;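 also: 0% = median of the plate's neutral control wells and 100% = double that signal; a rise in the Bmi1 reporter signal indicates esBAF inhibition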
PGC1a acetyl inh: lowers PGC1a acetylation signal in U2OS cells; 0.17% of 350,000 active; AlphaScreen anti-acetyl-lysine; with virally co-expressed GCN5 acetyltransferase; AID 651687; inhibition, % at 15.6 µM;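 active = every replicate shows inhibition of at least 40%; inconclusive = mean inhibition at least 40% but some replicate below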;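 also: 0% = neutral control wells and 100% = positive control wells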
UUG fidelity: modulators of start codon recognition fidelity in yeast; S. cerevisiae UUG-firefly luciferase reporter, luminescence/redox ratio; activity score, % at 18.7 µM; 0.13% of 350,000 active;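 active = replicate mean at a twofold rise or more, about +100% in these data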;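 also: firefly luciferase made from a UUG start codon reports start codon fidelity; reporter light over untreated wells divided by growth signal over untreated wells; some hits fall short of that in this replicate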
* marks the source's active call; other numbers are inactive results; u = inconclusive; x = not tested or not shown. Compounds with a hit are over-represented: about 2.8% of the library has one in this group of screens.

1. Clc1ccsc1-c1csc(-c2cccnc2)n1
2. c1cncc(-c2nc(-c3ccc4c(c3)OCO4)cs2)c1
3. O=C(NCC[C@@H]1CC[C@@H](NC(=O)c2ccc3c(c2)OCO3)[C@@H](CO)O1)Nc1cc(F)ccc1F
4. O=C(COc1ccc(Cl)cc1)NCCCNC(=O)c1cnccn1
5. Cc1cc(C(=O)COc2cccc([N+](=O)[O-])c2)c(C)n1C1CC1
screen / no. | 1 | 2 | 3 | 4 | 5
E-sel inducer | x | x | 0 | 34* | 5
C2C12 statin | -23 | x | 15 | -10 | -4
PglD inh | 5 | -5 | 3 | -8 | 3
esBAF inh | 70* | 52* | 14 | 2 | 71*
PGC1a acetyl inh | 10 | -3 | 8 | x | -8
UUG fidelity | -20 | -17 | 6 | -12 | -11

6. O=C(C[C@@H]1C[C@@H]2c3cc(NS(=O)(=O)c4ccc(F)cc4)ccc3O[C@@H]2[C@@H](CO)O1)NC1CCCC1
7. C[C@@H]1CCCCO[C@H](CN(C)C(=O)C2CCCCC2)[C@@H](C)CN([C@@H](C)CO)C(=O)c2cc(NC(=O)C3CCCCC3)ccc2O1
8. O=[N+]([O-])c1ccc(C(O)CSC(=S)N2CCCCC2)cc1 (stereo not drawn)
9. Cc1oc(C(C)(C)C)cc1C(=O)Nc1cccc(C(=O)O)c1
10. Cc1oc(C(C)(C)C)cc1C(=O)Nc1ccc(C(=O)O)cc1
screen / no. | 6 | 7 | 8 | 9 | 10
E-sel inducer | 0 | 0 | x | x | x
C2C12 statin | -7 | x | -25 | 2 | -32
PglD inh | 0 | 0 | -1 | -32 | -1
esBAF inh | 8 | 0 | 45* | 28 | 76*
PGC1a acetyl inh | 3 | 0 | x | 6 | -11
UUG fidelity | -11 | 13 | 4 | -29 | -5

11. O=C(Nc1ccc(F)cc1)N1CC(=O)N2[C@H](C1)[C@@H](c1ccc(-c3ccc(F)cc3)cc1)[C@@H]2CO
12. CCC(=O)N1C[C@@H](C)[C@@H](OC)CN(C)C(=O)c2cc(NC(=O)c3ccc(F)cc3)ccc2OC[C@H]1C
13. CCOc1ccc(/C=N/NC(=O)c2ccccc2O)cc1CN1CC2CC(C1)c1cccc(=O)n1C2 (stereo not drawn)
14. Oc1ccc(Cl)cc1N=Nc1ccccc1
15. Cc1ccc(O)c(N=Nc2ccccc2)n1
screen / no. | 11 | 12 | 13 | 14 | 15
E-sel inducer | 0 | 0 | x | x | 0
C2C12 statin | x | -5 | 0 | 12 | 1
PglD inh | x | 2 | 5 | 1 | 5
esBAF inh | x | 0 | 57* | 0 | 63*
PGC1a acetyl inh | -1 | -6 | 3 | -2 | x
UUG fidelity | x | -7 | -3 | -13 | 2

16. O=C(Nc1cccnc1)c1ccc(COc2ccccc2Cl)o1
17. O=C(Nc1ccc(Cl)cn1)c1ccc(COc2ccccc2Br)o1
18. CCOc1ccc(OCc2ccc(C(=O)Nc3ccc(Cl)cn3)o2)cc1
19. O=C(Nc1ccccn1)c1ccc(COc2ccccc2Cl)o1
20. CC(=O)N1[C@H](CO)[C@H](c2ccc(-c3ccc(F)cc3)cc2)[C@@H]1CNC(=O)C1CC1
screen / no. | 16 | 17 | 18 | 19 | 20
E-sel inducer | x | 0 | x | x | 0
C2C12 statin | -18 | 4 | 13 | 16 | -15
PglD inh | -2 | 8 | 0 | -5 | -2
esBAF inh | -1 | 88* | 11 | 64* | -3
PGC1a acetyl inh | -17 | 5 | 6 | -3 | 1
UUG fidelity | -13 | -7 | -9 | -11 | 12

21. Cc1ccc(S(=O)(=O)N[C@H](C(=O)NCCN=[N+]=[N-])C(C)C)cc1
22. COC(=O)C(CC#Cc1ccc2c(c1)[C@]1(C(=O)N2)[C@H](C(=O)NC[C@H](O)c2ccccc2)[C@H]2C(=O)O[C@H](c3ccccc3)[C@H](c3ccccc3)N2[C@@H]1c1ccccc1OCCO)C(=O)OC
23. O=C(Nc1nc(=O)c2ccccc2s1)c1ccc(Cl)cc1
24. O=C(Nc1nc(=O)c2ccccc2s1)c1ccc(F)cc1
25. C[C@@H]1CCCCO[C@H](CN(C)Cc2ccncc2)[C@H](C)CN([C@@H](C)CO)C(=O)c2cc(NC(=O)Nc3ccc4c(c3)OCO4)ccc2O1
screen / no. | 21 | 22 | 23 | 24 | 25
E-sel inducer | x | x | x | x | 0
C2C12 statin | x | x | 80* | 19 | x
PglD inh | x | -2 | 1 | -3 | -2
esBAF inh | x | x | 22 | 51* | 0
PGC1a acetyl inh | -1 | x | 1 | -29 | -1
UUG fidelity | x | -15 | -29 | -11 | -20

26. COc1ccc(-c2cn(CC[C@@H]3CC[C@H](NC(=O)Nc4ccc(F)cc4)[C@H](CO)O3)nn2)cc1
27. Nc1nonc1-c1nc2ccccc2n1Cc1ccc(F)cc1Cl
28. Fc1ccc(Cn2c(-c3cscn3)nc3ccccc32)c(Cl)c1
29. Cc1noc(C)c1NC(=O)Nc1ccc2c(c1)CC(=O)N([C@H](C)CO)C[C@H](C)[C@@H](CN(C)Cc1ccc(-c3ccccc3)cc1)O2
30. O=C(C[C@H]1C[C@@H]2c3cc(NS(=O)(=O)c4ccc(F)cc4)ccc3O[C@@H]2[C@@H](CO)O1)NCc1ccncc1
screen / no. | 26 | 27 | 28 | 29 | 30
E-sel inducer | 0 | x | x | 1 | 0
C2C12 statin | x | 116* | 47 | u | -1
PglD inh | x | 5 | -3 | x | -1
esBAF inh | x | -5 | -3 | 0 | 0
PGC1a acetyl inh | 4 | -27 | -18 | -3 | -11
UUG fidelity | x | -19 | -17 | x | -7

31. CC1(C)C(=O)N(c2ccccc2Cl)C(=O)c2ccccc21
32. CC1(C)C(=O)N(c2ccccc2)C(=O)c2ccccc21
33. Cc1ccc(NC(=O)CSc2nc(O)c(Cc3ccccc3)c(=O)n2-c2ccccc2)cc1
34. CCc1c(O)nc(SCC(=O)Nc2ccccc2)n(-c2ccccc2)c1=O
35. Cc1cccc(-c2noc(C3CCCCC3)n2)c1
screen / no. | 31 | 32 | 33 | 34 | 35
E-sel inducer | 1 | 52* | 0 | x | x
C2C12 statin | 43 | x | x | 5 | 6
PglD inh | -3 | x | -2 | -3 | 3
esBAF inh | 0 | x | 25* | 1 | 63*
PGC1a acetyl inh | -10 | 10 | x | 6 | -6
UUG fidelity | -15 | x | 1 | -7 | -15

36. CC1(Cc2cccc(F)c2)C(=O)Nc2ccc(-c3cccnc3)cc21 (stereo not drawn)
37. CC1(Cc2ccc(Cl)cc2)C(=O)Nc2ccc(-c3cccnc3)cc21 (stereo not drawn)
38. Fc1ccc2nc(Nc3ccccc3)sc2c1
39. O=C(Nc1nc2ccc(F)cc2s1)Oc1ccccc1
40. CC(C)NC(=O)Nc1ccc2c(c1)CC(=O)N([C@H](C)CO)C[C@@H](C)[C@@H](CN(C)C(=O)Nc1cccc3ccccc13)O2
screen / no. | 36 | 37 | 38 | 39 | 40
E-sel inducer | 0 | 0 | 0 | x | x
C2C12 statin | 14 | 116* | 11 | -2 | 16
PglD inh | 1 | -5 | 0 | 3 | -3
esBAF inh | -7 | -16 | 92* | 9 | 3
PGC1a acetyl inh | 21 | 46* | -12 | 8 | 2
UUG fidelity | -8 | -14 | -12 | -21 | 9

Down the list, from the results shown.
Entries 36–40 in C2C12 statin, in turn: 14, 116*, 11, -2, 16

Further results.
41. COc1ccc(C2CC(c3cccs3)=NN2S(C)(=O)=O)cc1 (stereo not drawn)
42. COc1ccc(C2CC(c3ccc(OC)c(OC)c3)=NN2S(C)(=O)=O)cc1 (stereo not drawn)
43. COc1ccc2c3c(n(C)c2c1)[C@H](CO)N(Cc1ccncc1)CC31CN(C(=O)C2CC2)C1
44. CCOC(=O)C(CC(=O)c1ccccc1)CC(=O)c1ccccc1
45. COc1ccccc1C(CC(=O)c1ccccc1)CC(=O)c1ccccc1
46. CCOC(=O)C(CCC(C)=O)C(=O)c1ccccc1 (stereo not drawn)
47. COC(=O)C(CC(=O)c1ccccc1)CC(=O)c1ccccc1
screen / no. | 41 | 42 | 43 | 44 | 45 | 46 | 47
E-sel inducer | 5 | 0 | 0 | x | x | 0 | 0
C2C12 statin | 14 | 7 | x | -2 | 9 | -6 | -2
PglD inh | 1 | 2 | x | 2 | x | 0 | -5
esBAF inh | u | 71* | x | 57* | -8 | -3 | 53*
PGC1a acetyl inh | 2 | 5 | x | -2 | -4 | -2 | -6
UUG fidelity | 22 | -12 | x | 1 | x | -7 | 16

Molecules listed so far that contain a COOH group:
9. Cc1oc(C(C)(C)C)cc1C(=O)Nc1cccc(C(=O)O)c1
10. Cc1oc(C(C)(C)C)cc1C(=O)Nc1ccc(C(=O)O)cc1
screen / no. | 9 | 10
E-sel inducer | x | x
C2C12 statin | 2 | -32
PglD inh | -32 | -1
esBAF inh | 28 | 76*
PGC1a acetyl inh | 6 | -11
UUG fidelity | -29 | -5
